Data published in patent publication US20240226106A1, “INHIBITORS OF PLASMA KALLIKREIN” (SHIRE HUMAN GENETIC THERAPIES, INC., priority 2021, published 2024).
Read-outs that look alike come from different tables or passages of the source.

Sequences of proteins named here, by UniProt entry; tags and fusion partners are left off. Residues count along the entry.
UniProt P03952, 20-390 partner limits assumed: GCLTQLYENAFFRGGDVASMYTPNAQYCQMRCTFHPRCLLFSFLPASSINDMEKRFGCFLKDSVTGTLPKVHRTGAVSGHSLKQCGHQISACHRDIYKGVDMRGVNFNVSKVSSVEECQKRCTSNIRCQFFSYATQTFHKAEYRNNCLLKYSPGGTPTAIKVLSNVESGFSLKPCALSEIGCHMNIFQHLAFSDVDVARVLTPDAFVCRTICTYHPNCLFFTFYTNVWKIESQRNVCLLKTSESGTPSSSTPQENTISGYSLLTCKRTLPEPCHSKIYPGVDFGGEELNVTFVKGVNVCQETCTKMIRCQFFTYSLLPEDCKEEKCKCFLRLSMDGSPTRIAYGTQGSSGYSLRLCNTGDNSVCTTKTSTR
UniProt P03952, 391-638 limits assumed: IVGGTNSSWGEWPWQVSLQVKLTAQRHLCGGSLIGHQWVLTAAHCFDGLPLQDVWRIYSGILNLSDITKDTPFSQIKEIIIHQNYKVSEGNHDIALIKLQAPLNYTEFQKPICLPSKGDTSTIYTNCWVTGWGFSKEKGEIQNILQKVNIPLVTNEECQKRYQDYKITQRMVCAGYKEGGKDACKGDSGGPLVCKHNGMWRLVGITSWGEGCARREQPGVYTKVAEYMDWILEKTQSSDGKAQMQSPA

How the values were obtained:
[1] = molecular target: human activated kallikrein enzyme (Homo sapiens, UniProt P03952); experiment: Inhibition of human activated plasma kallikrein, fluorogenic peptide substrate (PFR-AMC), 500 pM enzyme format; type: biochemical
Method: Compounds were evaluated for inhibition of the human activated kallikrein enzyme in two formats of an assay employing a fluorogenic peptide substrate. In one assay format, the concentrations of reagents were as follows: 20 mM Tris pH 7.5, 1 mM EDTA, 150 mM sodium chloride, 0.1% PEG-400, 0.1% Triton X-100, 500 pM activated kallikrein enzyme, […] Pro-Phe-Arg-7-amido-4-methylcoumarin (PFR-AMC) substrate. Prior to reaction initiation with substrate, enzyme and inhibitors were preincubated for 30 min at room temperature. After initiation with substrate, reactions were incubated for 10 min at room temperature and fluorescence emission at 460 nm from 380 nm excitation measured with a microplate reader. In another assay format, the concentrations of reagents were as follows: 20 mM Tris pH 7.5, 1 mM EDTA, 150 mM sodium chloride, 0.1% PEG-400, 0.1% Triton X-100, 5 pM activated kallikrein enzyme, 300 uM PFR-AMC substrate. Prior to reaction initiation with substrate, enzyme and inhibitors were preincubated for 30 min at room temperature. After initiation with substrate, reactions were incubated for 18 hr at room temperature and fluorescence emission at 460 nm from 380 nm excitation measured with a microplate reader.
Table 8 provides the results of the assay in the format with 500 pM activated kallikrein assay.

plasma kallikrein = molecular target: T1, plasma kallikrein (Homo sapiens, UniProt P03952); experiment: Neat human plasma assay (fluorogenic peptide), contact pathway-activated plasma; type: biochemical; conditions: read-out: Human Plasma Assay: IC90
T1 construct: from tissue; host or cells: sodium citrate collected human plasma
Method: To analyze inhibition of plasma kallikrein in an ex vivo setting, the potency of compounds was measure in contact pathway-activated plasma assays. In a fluorogenic peptide substrate assay, test compounds dissolved in DMSO were added to sodium citrate collected human or rat plasma in a 96-well microplate. Alternatively, citrated plasma was collected from rats administered the compounds orally or by IV. 10 nM of human FXIIa (Enzyme Research Laboratories) diluted in PKa buffer (20 mM Tris-HCl, pH 7.5, 150 mM NaCl, 1 mM EDTA, 0.100 PEG-8000, and 0.1% Triton X-100) was added to the plasma, followed by the 100 μM of the profluorescent, synthetic plasma kallikrein substrate PFR-AMC (also diluted in PKa buffer). Final plasma concentration in the reaction was […]. Fluorescence was immediately monitored by excitation/emission wavelengths of 360 nm/480 nm respectively over a period of 5 minutes in a microplate reader. The resulting linear increase in fluorescence emission (reflecting PKa proteolysis of PFR-AMC substrate) was fit to extract a proteolytic rate (fluorescent units over time), and this rate was subsequently plotted against compound inhibitor concentration. Resulting plots were fit to a standard 4-parameter IC50/C90 equation to determine min/max values, IC50/90, and slope. All experimental steps were performed at room temperature.

[2] = 500 pM activated kallikrein, PFR-AMC substrate, 30 min preincubation, 10 min reaction, room temperature, read-out: Primary Dose Response Assay: Average EC50

In the case of Cc1ccnc([C@H]2C[C@@H]2C(=O)Nc2cc(NC(C)c3cc4cc(C5CC5)cc(N5CC(=O)N(C)C5=O)n4n3)ncn2)n1 (single isomer, unassigned) [Example 95, (1S,2S)—N-(6-(((R *)-1-(5-cyclopropyl-7-(3-methyl-2,4-dioxoimidazolidin-1-yl)pyrazolo[1,5-a]pyridin-2-yl)ethyl)amino)pyrimidin-4-yl)-2-(4-methylpyrimidin-2-yl)cyclopropane-1-carboxamide], the EC50 [1] is reported as < 2.5 nM and the IC90 (plasma kallikrein) is reported as < 500 nM.
Cc1ccnc([C@H]2C[C@@H]2C(=O)Nc2cc(NCc3ccc(N4CC5C(C4)C5(F)F)nc3C)nc(C)n2)n1 (stereo partly drawn) [Example 88, (S,2S)—N-(6-(((6-(6,6-difluoro-3-azabicyclo[3.1.0]hexan-3-yl)-2-methylpyridin-3-yl)methyl)amino)-2-methylpyrimidin-4-yl)-2-(4-methylpyrimidin-2-yl)cyclopropane-1-carboxamide] was tested, and the EC50 [1] was 2.5 to 25 nM and the IC90 (plasma kallikrein) was 5000 to 65000 nM.
For Cc1ccnc([C@H]2C[C@@H]2C(=O)Nc2cc(NC(C)c3cn4nc(C5CC5)cc(N5CC(=O)N(C)C5=O)c4n3)nc(C)n2)n1 (stereo partly drawn) [Example 89, (1S,2S)—N-(6-((1-(6-cyclopropyl-8-(3-methyl-2,4-dioxoimidazolidin-1-yl)imidazo[1,2-b]pyridazin-2-yl)ethyl)amino)-2-methylpyrimidin-4-yl)-2-(4-methylpyrimidin-2-yl)cyclopropane-1-carboxamide], the EC50 [1] was < 2.5 nM and the IC90 (plasma kallikrein) was 500 to 5000 nM.
With Cc1ccnc([C@H]2C[C@@H]2C(=O)Nc2cc(N[C@H](C)c3cc4cc(C5CC5)cc(N5CC(=O)N(C)C5=O)n4n3)ncn2)n1 [Example 96, (1S,2S)—N-(6-(((R^•)-1-(5-cyclopropyl-7-(3-methyl-2,4-dioxoimidazolidin-1-yl)pyrazolo[1,5-a]pyridin-2-yl)ethyl)amino)pyrimidin-4-yl)-2-(4-methylpyrimidin-2-yl)cyclopropane-1-carboxamide] the EC50 [1, 2] was 25 to 500 nM.
For Cc1ccnc([C@H]2C[C@@H]2C(=O)Nc2cc(N[C@H](C)c3cc4cc(C5CC5)cc(N5CC6CC6C5=O)n4n3)ncn2)n1 (stereo partly drawn) [Example 103, (1S,2S)—N-(6-(((1R^•)-1-(5-cyclopropyl-7-(2-oxo-3-azabicyclo[3.1.0]hexan-3-yl)pyrazolo[1,5-a]pyridin-2-yl)ethyl)amino)pyrimidin-4-yl)-2-(4-methylpyrimidin-2-yl)cyclopropane-1-carboxamide], the EC50 [1] was < 2.5 nM and the IC90 (plasma kallikrein) was < 500 nM.
In the case of “(1S,2S)—N-(6-(((R^•)-1-(5-cyclopropyl-7-(3-methyl-2,4-dioxoimidazolidin-1-yl)pyrazolo[1,5-a]pyrimidin-2-yl)ethyl)amino)pyrimidin-4-yl)-2-(4-methylpyrimidin-2-yl)cyclopropane-1-carboxamide [Example 104]”, the EC50 [1, 2] is reported as 2.5 to 25 nM.
For “(1S,2S)—N-(6-(((R^•)-1-(5-methyl-7-(3-methyl-2,4-dioxoimidazolidin-1-yl)pyrazolo[1,5-a]pyridin-2-yl)ethyl)amino)pyrimidin-4-yl)-2-(4-methylpyrimidin-2-yl)cyclopropane-1-carboxamide [Example 106]”, the EC50 [1, 2] was < 2.5 nM and the IC90 (plasma kallikrein; citrated human plasma, 10 nM human FXIIa activation, 100 μM PFR-AMC, room temperature) was < 500 nM.
